Values quoted from earlier work as cited in US20080090808A1, “Pharmaceutical compositions and methods for preventing, treating, or reversing neuronal dysfunction” (published 2008).
Read-outs that look alike come from different tables or passages of the source.

How the values were obtained:
[1] = preclinical studies
[2] = tablet, oral
[3] = oral, rat
NMDA receptor = NMDA receptor (Rattus norvegicus, UniProt P35439); conditions: listed as (−)-huperzine A
AChE = conditions: PB given less than 3 hours prior to soman exposure

Molecule: CN1[C@@H]2CC[C@H]1C[C@@H](OC(=O)C(CO)c1ccccc1)C2 (stereo partly drawn)
- effect on acute toxicity associated with huperzine A [1]: reduced acute toxicity associated with huperzine A

Molecule: C/C=C1\[C@H]2C=C(C)C[C@]1(N)c1ccc(=O)[nH]c1C2
- patients showing side effects (1200 μg/day): approximately 50%
- tolerability (daily oral doses of 300-400 μg): well tolerated with a low incidence of side effects
- absorption half-life (T1/2Ka) [2]: 12.6 min
- elimination half-life [2]: approximately 288.5 minutes
- time to peak plasma concentrations ([2]; average): approximately 79.6 minutes
- time to peak plasma concentrations [3]: 10 to 30 min

Molecule: 5,9-Methanocycloocta(b)pyridin-2(1H)-one, 5-amino-11-ethylidene-5,6,9,10-tetrahydro-7-methyl-, (5R,9R,11E)-
- maximal ACh elevation in the brain (ACh; 30-60 minutes after i.m. 2 mg/kg): 40%
- increase in ACh levels (ACh; 60 min after i.m. 2 mg/kg): up to 40%
- elevation in ACh level in the brain (ACh; 6 hours after i.m. 2 mg/kg): 12%
- maximal ACh elevation (ACh; frontal cortex, i.m. 2 mg/kg): 125%
- ACh increase (ACh; other brain regions, i.m. 2 mg/kg): 22-65%
- maximal ACh elevation (ACh; parietal cortex, i.m. 2 mg/kg): 105%
- NMDA receptor antagonism / block of NMDA calcium ion channel, enantiomers compared (NMDA receptor): equal potency

Molecule: CN(C)C(=O)Oc1ccc[n+](C)c1
- AChE inhibition level (AChE): increased levels of ACHE inhibition
